Data reported in publication PMC12337661, “PIEZO1 mechanical insensitivity in generalized lymphatic dysplasia with the potential for pharmacological rescue” (iScience, 2025).

System: T-REx-293 cells, empty vector (vector control)
Assay: Intracellular Ca2+ measurement (fura-2), T-REx-293 cells stably transfected with empty vector
Details: time course 0-125 s, time (s) in the cell to the left, Figure 3e
Description: T-REx-293 cell line was transfected with pcDNA4/TO-mPIEZO1 constructs using Lipofectamine 2000 (Invitrogen) as above and treated with 200 μg.mL^−1 zeocin (InvivoGen) to select for stably transfected cells. At least two strongly expressing clonal cell lines were established and tested for each variant. All cell lines were maintained in Dulbecco’s Modified Eagle’s medium (Invitrogen) supplemented with 10% heat-inactivated fetal calf serum (Sigma-Aldrich), penicillin (50 units.mL^−1) and streptomycin (0.5 mg.mL^−1) (Sigma-Aldrich) and grown at 37°C in a humidified 5% CO2 incubator.
For intracellular Ca^2+ assays, cells were plated at 80–90% confluence in 96-well plates 24 h prior to recordings (6–8 × 10^4 cells per well). To measure intracellular Ca^2+, cells were incubated for 1 h at 37°C in standard bath solution (SBS) of composition 135 mM NaCl, 5 mM KCl, 1.2 mM MgCl2, 1.5 mM CaCl2, 8 mM glucose and 10 mM HEPES (pH titrated to 7.4 using NaOH) containing 2 μM fura-2-acetoxymethyl ester (fura-2-AM, Molecular Probes) with 0.01% weight/volume pluronic acid. Cells were washed with SBS and incubated at room temperature for 20 min prior to recordings. Equal volumes of 2x concentrated compounds were injected to test for acute channel activation. Pre-incubation with compounds occurred during the 20 min prior to recordings. To expose cell membranes to hypo-osmolality, an equal volume of hypotonic SBS (containing only 35 mM NaCl) was injected onto the cells. Measurements were made on a fluorescence plate reader (Flexstation III, Molecular Devices) at room temperature (21 ± 2°C). Fura-2 was excited at 340 nm and 380 nm and emitted light collected at 510 nm, with measurements shown as the change in fluorescence (F) ratio (ΔF340/380).
KC41 (Dooku1) was prepared as described.[28] All purchased chemicals and solvents were used without further purification unless otherwise stated. All compounds were at least 95% pure by 1H NMR. 1H Nuclear Magnetic Resonance spectra were recorded at 500 MHz using a Bruker DRX 500 instrument or at 400 MHz using a Bruker DPX 400. 1H spectra are referenced based on the residual proton in the solvent (e.g., the CHCl3, 0.01% in 99.99% CDCl3). Coupling constants (J) are reported to the nearest 0.1 Hz. 13C NMR spectra were recorded at 125 MHz on 500 MHz spectrometers or at 100 MHz on 400 MHz spectrometers. LC-MS was performed on a Bruker Daltronics running a gradient of increasing acetonitrile (5–95%) in H2O both containing 0.1% formic acid at 1 mL.min^−1, on a short path C18 reverse phase column, detecting compounds with both a diode array detector and a Bruker mass spectrum analyser. HRMS was performed on a Bruker Daltonics micrOTOF using positive electrospray ionisation (ES+). Automated column chromatograph was carried out using a Biotage Isolera Four, using either Sfär Silica D or KP-Silica cartridges. HPLC was performed on an Agilent 1290 Infinity Series equipped with a UV detector and Hyperprep C18 reverse phase column. Key to NMR abbreviations: s (singlet), br s (broad singlet) d (doublet), dd (doublet of doublets), ddd (doublet of doublets of doublets), t (triplet), dt (doublet of triples), q (quartet), m (multiplet), ap. t (apparent triplet). For experiments, Yoda1 and its analogues were prepared as 10 mM stock solutions in 100% dimethyl sulfoxide (DMSO) before serial dilution in DMSO and final dilution in aqueous solution. Cells were exposed to 0.1% DMSO for all concentrations of the compounds from 0 to 10 μM.

## Clc1cccc(Cl)c1CSc1nnc(-c2cnccn2)s1 [Yoda1]
Yoda1 0.01 µM, time 60 s
  fluorescence: 0.02437
Yoda1 0.01 µM, time 110 s
  fluorescence: 0.01728
Yoda1 0.03 µM, time 5 s
  fluorescence: 0.00394
Yoda1 0.03 µM, time 55 s
  fluorescence: 0.04884
Yoda1 0.03 µM, time 110 s
  fluorescence: 0.02692
Yoda1 0.1 µM, time 0 s
  fluorescence: -0.00125
Yoda1 0.1 µM, time 55 s
  fluorescence: 0.03759
Yoda1 0.1 µM, time 110 s
  fluorescence: 0.02302
Yoda1 0.3 µM, time 0 s
  fluorescence: -0.00175
Yoda1 0.3 µM, time 5 s
  fluorescence: 0.01377
Yoda1 0.3 µM, time 10 s
  fluorescence: -0.00153
Yoda1 0.3 µM, time 15 s
  fluorescence: -0.01273
Yoda1 0.3 µM, time 20 s
  fluorescence: -0.00341
Yoda1 0.3 µM, time 25 s
  fluorescence: 0.00565
Yoda1 0.3 µM, time 30 s
  fluorescence: -0.2499
Yoda1 0.3 µM, time 35 s
  fluorescence: -0.1069
Yoda1 0.3 µM, time 40 s
  fluorescence: 0.04219
Yoda1 0.3 µM, time 45 s
  fluorescence: 0.02992
Yoda1 0.3 µM, time 50 s
  fluorescence: 0.04239
Yoda1 0.3 µM, time 55 s
  fluorescence: 0.02369
Yoda1 0.3 µM, time 60 s
  fluorescence: 0.02877
Yoda1 0.3 µM, time 65 s
  fluorescence: 0.01603
Yoda1 0.3 µM, time 70 s
  fluorescence: 0.04176
Yoda1 0.3 µM, time 75 s
  fluorescence: 0.00642
Yoda1 0.3 µM, time 80 s
  fluorescence: 0.03982
Yoda1 0.3 µM, time 85 s
  fluorescence: 0.03156
Yoda1 0.3 µM, time 90 s
  fluorescence: 0.03001
Yoda1 0.3 µM, time 95 s
  fluorescence: 0.02269
Yoda1 0.3 µM, time 100 s
  fluorescence: 0.00809
Yoda1 1 µM, time 0 s
  fluorescence: -0.00535
Yoda1 1 µM, time 55 s
  fluorescence: 0.04091
Yoda1 1 µM, time 110 s
  fluorescence: 0.01839
Yoda1 3 µM, time 0 s
  fluorescence: 0.01974
Yoda1 3 µM, time 5 s
  fluorescence: 0.00863
Yoda1 3 µM, time 10 s
  fluorescence: -0.01253
Yoda1 3 µM, time 15 s
  fluorescence: -0.00652
Yoda1 3 µM, time 20 s
  fluorescence: 0.00489
Yoda1 3 µM, time 25 s
  fluorescence: -0.01421
Yoda1 3 µM, time 30 s
  fluorescence: -0.2206
Yoda1 3 µM, time 35 s
  fluorescence: -0.1161
Yoda1 3 µM, time 40 s
  fluorescence: 0.06482
Yoda1 3 µM, time 50 s
  fluorescence: 0.06525
Yoda1 3 µM, time 55 s
  fluorescence: 0.08549
Yoda1 3 µM, time 105 s
  fluorescence: 0.04529
Yoda1 3 µM, time 110 s
  fluorescence: 0.05218
Yoda1 3 µM, time 115 s
  fluorescence: 0.04746
Yoda1 3 µM, time 120 s
  fluorescence: 0.0477
Yoda1 3 µM, time 125 s
  fluorescence: 0.03491
Yoda1 5 µM, time 0 s
  fluorescence: -0.00759
Yoda1 5 µM, time 10 s
  fluorescence: 0.00484
Yoda1 5 µM, time 15 s
  fluorescence: -0.01453
Yoda1 5 µM, time 20 s
  fluorescence: 0.01196
Yoda1 5 µM, time 25 s
  fluorescence: -0.00265
Yoda1 5 µM, time 30 s
  fluorescence: -0.1828
Yoda1 5 µM, time 35 s
  fluorescence: -0.1045
Yoda1 5 µM, time 40 s
  fluorescence: 0.1222
Yoda1 5 µM, time 45 s
  fluorescence: 0.09547
Yoda1 5 µM, time 50 s
  fluorescence: 0.1062
Yoda1 5 µM, time 55 s
  fluorescence: 0.1244
Yoda1 5 µM, time 60 s
  fluorescence: 0.1058
Yoda1 5 µM, time 65 s
  fluorescence: 0.1061
Yoda1 5 µM, time 70 s
  fluorescence: 0.08919
Yoda1 5 µM, time 80 s
  fluorescence: 0.09353
Yoda1 5 µM, time 85 s
  fluorescence: 0.08273
Yoda1 5 µM, time 90 s
  fluorescence: 0.09999
Yoda1 5 µM, time 95 s
  fluorescence: 0.09519
Yoda1 5 µM, time 100 s
  fluorescence: 0.08723
Yoda1 5 µM, time 105 s
  fluorescence: 0.09223
Yoda1 5 µM, time 110 s
  fluorescence: 0.08686
Yoda1 5 µM, time 115 s
  fluorescence: 0.08757
Yoda1 5 µM, time 120 s
  fluorescence: 0.08911
Yoda1 5 µM, time 125 s
  fluorescence: 0.1049
Yoda1 10 µM, time 50 s
  fluorescence: 0.1449
Yoda1 10 µM, time 100 s
  fluorescence: 0.2049
